## Measured melting point values of organic chemicals

Data: OPERA 2.9 data sets, kmansouri/OPERA on GitHub.

Melting points are in °C. Cells with "n/a" have no entry in this list.

mp (°C),compound,name
109,COc1ccc2cc(C(=O)CBr)ccc2c1,2-Bromoacetyl-6-methoxynaphthalene
153,CC(=O)c1c(C)nc2ccccc2c1N,1-(4-amino-2-methylquinolin-3-yl)ethanone
150,Nc1ccccc1NC(=O)c1ccccc1,N-(2-aminophenyl)benzamide
84.5,CCOC(=O)n1c(-c2cscn2)nc2ccccc21,"Ethyl 2-(1,3-thiazol-4-yl)-1H-benzimidazole-1-carboxylate"
136.5,Cc1ccc(S(N)(=O)=O)cc1Cl,3-chloro-4-methylbenzenesulfonamide
41.5,Fc1cccc(CBr)c1C(F)(F)F,3-Fluoro-2-(trifluoromethyl)benzyl bromide
73,CCOc1cccc2cc(C(C)=O)oc12,1-(7-Ethoxy-1-benzofuran-2-yl)ethan-1-one
193,O=c1[nH]snc1N1CCOCC1,"4-(Morpholin-4-yl)-1,2,5-thiadiazol-3-ol"
155,CC(C)NC(N)=O,Isopropylurea
126,CSCCC(C(=O)O)N1C(=O)c2ccccc2C1=O (configuration not stated),n/a
66,CN(C)c1ccc(C=O)s1,5-(dimethylamino)thiophene-2-carbaldehyde
107,O=C(O)Cc1csc(-c2ccccc2Cl)n1,"[2-(2-chlorophenyl)-1,3-thiazol-4-yl]acetic acid"
151.5,NC(=O)/C(=C\c1ccc([N+](=O)[O-])o1)c1ccco1,AF-2
68,CCNc1ccc(Br)cn1,5-Bromo-N-ethylpyridin-2-amine
119,COc1cc(C)ccc1OCC(=O)O,(2-Methoxy-4-methyl-phenoxy)-acetic acid
-7.1,CC1(C)[C@@H]2CC[C@@]3(C2)[C@H]1C(=O)CCC3(C)C (relative stereo),n/a
144,S=c1[nH]nc(NCCc2ccccc2)s1,"5-[(2-phenylethyl)amino]-1,3,4-thiadiazole-2-thiol"
263,COc1ccccc1NC(=O)C(N=Nc1ccc(Cl)cc1[N+](=O)[O-])C(C)=O (configuration not stated),C.I. Pigment Yellow 73
116,O=C(O)CSc1ccccc1Cl,o-Chlorophenyl thioacetic acid
27.5,CCCCCCCCCCCCOc1ccc(C=O)cc1,p-Dodecyloxybenzaldehyde
234,Nn1cnc2c(cnn2-c2ccccc2)c1=O,n/a
226,CN(C)c1ccc(C(=O)O)cn1,"3-Pyridinecarboxylic acid, 6-(dimethylamino)-"
114,O=C(CCl)NC(=O)OCc1ccccc1,benzyl chloroacetylcarbamate
174,COC1=CC2=CC[C@H]3[C@@H]4[C@@H]5C[C@@H]5[C@](O)(CCC5OCCO5)[C@@]4(C)CC[C@@H]3[C@@]2(C)CC1,n/a
58.95,CCCCCCCCCCCCCCCCCCOC(=O)CCCCCCCCCCCCCCCCC,Stearyl stearate
83,Cc1cc(SC#N)cc(C)c1N,"4-amino-3,5-dimethylphenyl thiocyanate"
184,CS(=O)(=O)c1ccc(Cl)c(C(=O)O)c1,2-chloro-5-(methylsulfonyl)benzoic acid
179.2,CCCCCCC(O)CCCCCCCCCCC(=O)[O-].CCCCCCC(O)CCCCCCCCCCC(=O)[O-].[Ca+2] (configuration not stated),"Octadecanoic acid, 12-hydroxy-, calcium salt (2:1)"
30.5,CN1CCC(N2CCNCC2)CC1,1-(1-Methyl-4-piperidinyl)piperazine
195,O=C(O)c1cc([N+](=O)[O-])ccc1I,2-Iodo-5-nitrobenzoic acid
208,O=C(O)C1CC(=O)N(c2cccc3ccccc23)C1 (configuration not stated),1-(Naphthalen-1-yl)-5-oxopyrrolidine-3-carboxylic acid
175,O=C(O)CNc1cccc(Cl)c1,2-[(3-chlorophenyl)amino]acetic Acid
100,Cc1ccc(C(=O)CCC(=O)O)s1,4-(5-Methylthiophen-2-yl)-4-oxobutanoic acid
126,CC(Oc1ccc(Cl)c(Cl)c1)C(=O)O (configuration not stated),"2-(3,4-Dichlorophenoxy)propanoic acid"
119,Cc1cc(OCC(=O)O)ccc1C(C)C,(4-Isopropyl-3-methyl-phenoxy)-acetic acid
186.5,O=C1C=C(O)CC(c2ccccc2)C1 (configuration not stated),3-hydroxy-5-phenylcyclohex-2-en-1-one
157,CC(C)(C)c1ccc(C(=O)O)cc1[N+](=O)[O-],4-tert-butyl-3-nitrobenzoic acid
80,O=C1C2CC=CCC2C(=O)N1CCO (configuration not stated),n/a
40.8,CCCCCCCCCCCCCCCCCCCCCCN(C)C,"1-Docosanamine, N,N-dimethyl-"
190,O=C(O)c1cc(N2CCOCC2)ccc1[N+](=O)[O-],5-(Morpholin-4-yl)-2-nitrobenzoic acid
180,CC(C)(C)N(NC(=O)c1ccccc1)C(=O)c1cccc(Cl)c1,N'-Benzoyl-3-chloro-N-(2-methyl-2-propanyl)benzohydrazide
174,c1ccc2c3c(ccc2c1)-c1c(ccc2ccccc12)C3,"13H-Dibenzo[a,g]fluorene"
67,Nc1ccc(OCC(F)(F)F)cc1,"4-(2,2,2-trifluoroethoxy)aniline"
230,O=C1NC(=O)C2(CCc3ccccc32)N1 (configuration not stated),n/a
43.5,COC(=O)c1ccc(C(Br)Br)cc1,Methyl 4-(dibromomethyl)benzoate
63,O=P(O)(OCCC(F)(F)C(F)(F)C(F)(F)C(F)(F)C(F)(F)C(F)(F)F)OCCC(F)(F)C(F)(F)C(F)(F)C(F)(F)C(F)(F)C(F)(F)F,n/a
255.8,CCN(CC)c1ccc2c(C#N)c(-c3nc4ccccc4s3)c(=O)oc2c1,n/a
1.625,CCCCCCCCCCCC(=O)OCC(C)(C)C=NCCCCCCN=CC(C)(C)COC(=O)CCCCCCCCCCC,n/a
182.5,O=C(O)c1c(O)ccc(F)c1F,"2,3-Difluoro-6-hydroxybenzoic acid"
167,CCCn1c(N)cc(=O)n(C)c1=O,n/a
159,Cc1nsc(N)c1C(=O)O,3-Methyl-5-aminoisothiazolo-4-carboxylic acid
142,Cc1cccc(OC(C)C(=O)NN)c1C (configuration not stated),"2-(2,3-dimethylphenoxy)propanohydrazide"
175,Cc1ccc(C23CC4CC(CC(C(=O)O)(C4)C2)C3)cc1,3-(4-Methylphenyl)adamantane-1-carboxylic acid
2.5,CC1=CCC(=C(C)C)CC1,Terpinolene

6 of these entries, quoted again:

compound	name	mp (°C)
Cc1cc(SC#N)cc(C)c1N	4-amino-3,5-dimethylphenyl thiocyanate	83
NC(=O)/C(=C\c1ccc([N+](=O)[O-])o1)c1ccco1	AF-2	151.5
O=C(O)Cc1csc(-c2ccccc2Cl)n1	[2-(2-chlorophenyl)-1,3-thiazol-4-yl]acetic acid	107
CCCCCCCCCCCCOc1ccc(C=O)cc1	p-Dodecyloxybenzaldehyde	27.5
Cc1cc(OCC(=O)O)ccc1C(C)C	(4-Isopropyl-3-methyl-phenoxy)-acetic acid	119
CC(Oc1ccc(Cl)c(Cl)c1)C(=O)O (configuration not stated)	2-(3,4-Dichlorophenoxy)propanoic acid	126

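The OPERA project collected these measurements from public sources as training and test data for property models. The files give a single number for a compound and property, which may rest on several reports. Conditions of the individual experiments are not part of the data. Where a salt, mixture or single isomer is drawn, the source does not say that exactly this form was tested. Unmarked limits or estimates from the upstream databases cannot be ruled out.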